Measurements published in BindingDB's records for patent US20240239774 (Cornell University, 2024).
pIC50: −log10 of the molar value. Several values for one entry are separate records, joined by “and”; a condition that tells them apart may be missing. Equal entries are not always repeated.

Amino acid sequences for entries named in this document (tags omitted). A change or cut given only in a name is not applied to a line headed by its entry.
UniProt Q96PN6: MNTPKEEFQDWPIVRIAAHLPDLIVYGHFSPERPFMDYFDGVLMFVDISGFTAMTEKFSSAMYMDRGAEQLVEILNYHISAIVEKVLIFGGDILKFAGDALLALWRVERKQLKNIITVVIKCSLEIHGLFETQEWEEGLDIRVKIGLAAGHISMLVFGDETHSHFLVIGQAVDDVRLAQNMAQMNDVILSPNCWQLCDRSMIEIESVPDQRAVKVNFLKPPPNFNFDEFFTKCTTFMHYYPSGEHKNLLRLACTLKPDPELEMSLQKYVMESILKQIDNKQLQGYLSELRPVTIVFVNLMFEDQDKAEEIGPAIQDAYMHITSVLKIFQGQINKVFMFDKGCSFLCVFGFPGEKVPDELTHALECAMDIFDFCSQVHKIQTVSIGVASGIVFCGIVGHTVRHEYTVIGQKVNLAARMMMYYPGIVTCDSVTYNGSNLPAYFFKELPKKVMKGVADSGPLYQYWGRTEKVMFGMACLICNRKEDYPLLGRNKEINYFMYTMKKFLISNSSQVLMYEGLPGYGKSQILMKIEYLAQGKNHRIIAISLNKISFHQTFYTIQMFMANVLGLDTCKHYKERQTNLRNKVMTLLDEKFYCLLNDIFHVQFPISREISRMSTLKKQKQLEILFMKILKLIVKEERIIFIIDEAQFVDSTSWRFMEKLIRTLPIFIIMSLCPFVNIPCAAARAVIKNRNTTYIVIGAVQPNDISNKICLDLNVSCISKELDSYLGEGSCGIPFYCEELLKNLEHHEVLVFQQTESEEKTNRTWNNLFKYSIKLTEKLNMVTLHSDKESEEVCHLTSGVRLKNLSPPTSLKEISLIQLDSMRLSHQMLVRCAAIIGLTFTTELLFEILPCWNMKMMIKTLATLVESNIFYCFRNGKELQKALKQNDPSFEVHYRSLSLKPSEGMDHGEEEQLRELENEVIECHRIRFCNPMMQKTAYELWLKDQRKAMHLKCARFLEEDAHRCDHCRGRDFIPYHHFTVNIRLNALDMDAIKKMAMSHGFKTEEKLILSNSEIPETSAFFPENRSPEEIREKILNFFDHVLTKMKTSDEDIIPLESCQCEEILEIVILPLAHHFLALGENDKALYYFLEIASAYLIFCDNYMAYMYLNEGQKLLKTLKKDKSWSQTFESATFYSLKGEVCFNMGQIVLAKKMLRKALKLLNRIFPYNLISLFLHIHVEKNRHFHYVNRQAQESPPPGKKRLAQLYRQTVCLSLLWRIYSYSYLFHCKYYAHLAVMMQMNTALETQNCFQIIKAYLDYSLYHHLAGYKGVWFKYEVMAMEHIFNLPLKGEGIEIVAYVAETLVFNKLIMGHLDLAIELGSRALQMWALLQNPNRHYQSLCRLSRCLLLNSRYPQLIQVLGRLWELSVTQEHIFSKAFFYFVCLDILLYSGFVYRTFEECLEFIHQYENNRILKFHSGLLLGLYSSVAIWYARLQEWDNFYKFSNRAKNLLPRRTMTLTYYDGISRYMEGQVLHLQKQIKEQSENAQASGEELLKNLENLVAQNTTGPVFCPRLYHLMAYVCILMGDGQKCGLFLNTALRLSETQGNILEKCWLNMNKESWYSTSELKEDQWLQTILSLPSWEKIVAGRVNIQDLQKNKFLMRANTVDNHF

Each molecule was assayed against Adenylate cyclase type 10 (Homo sapiens, UniProt Q96PN6) (assay: sAC Biochemical Cyclase Assay).
A pIC50 of 8.80 was found for `Cn1cc(Cc2ccccc2OCCN2CCOCC2)c(-c2cc(Cl)nc(N)n2)n1` [US20240239774, Example 82] in this work. A pIC50 of 8.10 was found for `Cn1cc(Cc2ccccc2OCCN2CCNC(=O)C2)c(-c2cc(Cl)nc(N)n2)n1` [US20240239774, Example 120] in this work. `Nc1nc(Cl)cc(-c2nn(C(F)F)cc2Cc2ccccc2OCCN2CCS(=O)(=O)CC2CO)n1` (single isomer, unassigned) [US20240239774, Example 179] was tested, and the pIC50 was 7.10 and 6.16. A pIC50 of 8.30 was found for `Cn1cc(Cc2ccccc2OCCN2C[C@H]3C[C@@H]2CO3)c(-c2cc(Cl)nc(N)n2)n1` [US20240239774, Example 107] in this work. A pIC50 of 8.30 was found for `Cn1cc(Cc2ccccc2OCCN2CC3(COC3)C2)c(-c2cc(Cl)nc(N)n2)n1` [US20240239774, Example 123] in this work.
